Results on one compound are retold here after article PMC10215400, “The Effectiveness of Imipenem–Relebactam against Ceftazidime-Avibactam Resistant Variants of the KPC-2 β-Lactamase” (Antibiotics, 2023).

Protein sequences, listed by entry. Tags and fused reporters are not part of them. Residues count along the entry.
UniProt Q93LQ9, 25-293 D178N: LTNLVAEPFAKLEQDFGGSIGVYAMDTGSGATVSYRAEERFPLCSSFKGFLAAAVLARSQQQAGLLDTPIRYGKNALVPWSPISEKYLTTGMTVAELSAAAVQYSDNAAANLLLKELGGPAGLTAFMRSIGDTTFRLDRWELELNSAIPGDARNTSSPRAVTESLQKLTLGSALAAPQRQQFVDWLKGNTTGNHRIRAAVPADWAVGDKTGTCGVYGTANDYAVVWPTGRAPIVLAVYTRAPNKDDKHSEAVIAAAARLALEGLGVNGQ
UniProt Q93LQ9, 25-293 D178Y: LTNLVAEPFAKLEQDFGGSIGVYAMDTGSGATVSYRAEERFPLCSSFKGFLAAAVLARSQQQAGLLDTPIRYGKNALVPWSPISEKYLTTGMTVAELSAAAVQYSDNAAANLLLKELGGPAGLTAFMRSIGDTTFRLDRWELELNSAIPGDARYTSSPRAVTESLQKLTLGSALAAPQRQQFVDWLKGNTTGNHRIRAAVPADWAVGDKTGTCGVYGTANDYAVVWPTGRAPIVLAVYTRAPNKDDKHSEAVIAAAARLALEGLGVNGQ

For experiment [1], the target named is KPC-2 β-lactamase D179N variant (Klebsiella pneumoniae, UniProt Q93LQ9, D178N). In words: stopped-flow hydrolysis progress curves with purified enzyme; timed mass spectrometry. It is filed as biochemical.
Experiment [2] addresses KPC-2 β-lactamase D179Y variant (Klebsiella pneumoniae, UniProt Q93LQ9, D178Y). Description: time-based mass spectrometry of acyl-complex ([…]); stopped-flow hydrolysis. It counts as binding.

For the compound `CC(C)(O/N=C(\C(=O)N[C@@H]1C(=O)N2C(C(=O)[O-])=C(C[n+]3ccccc3)CS[C@H]12)c1csc(N)n1)C(=O)O` [ceftazidime], the “stopped-flow hydrolysis progress curves with purified enzyme; timed mass spectro” value in experiment [1] is listed as “Conversely, all three β-lactamases hydrolyzed ceftazidime”. Also, in experiment [2], the “time-based mass spectrometry of acyl-complex (1:50); stopped-flow hydrolysis” value was “acyl-complexes with imipenem and ceftazidime with the D179N variant was captured less often compared to the D179Y variant”.
